We go through 1 substance from publication PMC3519363.

This test concerns the target myristoylated neurocalcin δ (UniProt P61602). As to the kind of experiment: FPLC.

Take “myristoylated neurocalcin δ (from UniProt P61602 1-193) (natural protein)”: the stoichiometry N came out at 2.

By stoichiometry N is commonly meant a count of units in the complex or per binding partner.
